Measured values taken from paper PMC10907714.

Target: human EGFR-WT (human) (UniProt P00533)

- EC50 of hEGF for recruitment of RlucII-SH2(SHIP1) to the plasma membrane (ebBRET with rGFP-CAAX), HEK293 cells with EGFR-WT, 10 min: 0.21 nM
Substance: human recombinant Epidermal Growth Factor (EGF) (ligand)
